# Assays:
# Chains of the proteins cited; added tags and fusions are not shown. Lines headed by an entry give the natural chain unless they say otherwise; changes in a name come on top.
# UniProt Q01727: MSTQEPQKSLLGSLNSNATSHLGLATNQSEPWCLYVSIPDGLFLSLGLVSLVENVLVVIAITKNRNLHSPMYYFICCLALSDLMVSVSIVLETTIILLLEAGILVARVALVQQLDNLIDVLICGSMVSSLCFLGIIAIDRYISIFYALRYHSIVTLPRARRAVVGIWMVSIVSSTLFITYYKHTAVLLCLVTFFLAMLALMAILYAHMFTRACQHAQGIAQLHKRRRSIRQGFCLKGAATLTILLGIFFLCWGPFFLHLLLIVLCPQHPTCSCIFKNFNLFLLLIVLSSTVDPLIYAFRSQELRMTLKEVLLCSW
# mouse MC1R = mouse MC1R (Mus musculus, UniProt Q01727); details: read-out: EC50 (nmol/L) mMC1R; cAMP in HEK293 cells stably expressing mouse MC1R; one-half of Emax of αMSH
# skin of healthy subjects = details: 150 and 300 mg orally once daily for 14 days; FIG. 2
smiles,measurement,setting,value
"COC[C@H]1CN(C(=O)[C@]2(F)CN(C3CCCC3)C[C@H]2c2ccc(OC)cc2)C[C@@H]1c1ccc(C(F)(F)F)cc1N1CCC(C(=O)O)CC1 [Compound A, Cocrystal of 1-{2-[(3S,4R)-1-{[(3R,4R)-1-cyclopentyl-3-fluoro-4-(4-methoxyphenyl)pyrrolidin-3-yl]carbonyl}-4-(methoxymethyl)pyrrolidin-3-yl]-5-(trifluoromethyl)phenyl}piperidine-4-carboxylic acid with phosphoric acid]",EC50,mouse MC1R,1.14 nmol/L
same,increase in melanin density of the skin: duration,skin of healthy subjects,kept until day 29
